This is an account of results in patent US10639276B2, “Liposomes with ginsenoside as membrane material and preparations and use thereof” (SHANGHAI GINPOSOME PHARMATECH CO., LTD., priority 2015, dated 2020).

Common to all, as to experiment: Cell survival rate, cell experiment in vitro (MTT)
Data set [1] relates to paclitaxel-resistant human pancreatic cancer cell line (BxPC-3/T). The format is cell-based. The settings on record: C (μM): Taxol + Rg5 100 + 600; Taxol 100; Blank Rg5 600. The method, then:
The new recovery BxPC-3 cells were cultured for two generations or three generations under conventional conditions to make the cells grow stably.

For data set [2], the system named is human ovarian cancer cell line (A2780). The settings on record: C (μM): Taxol + Rg5 0.003906 + 0.02343; Taxol 0.003906; Blank Rg5 0.023438; Abraxane 0.003906.
Data set [3] has as its system paclitaxel-resistant human ovarian cancer cell line (A2780/T).

`CC(=O)O[C@H]1C(=O)[C@@]2(C)[C@H]([C@H](OC(=O)c3ccccc3)[C@]3(O)C[C@H](OC(=O)[C@H](O)[C@@H](NC(=O)c4ccccc4)c4ccccc4)C(C)=C1C3(C)C)[C@]1(OC(C)=O)CO[C@@H]1C[C@@H]2O` [Taxol, paclitaxel]: the “Cell Viability” value in data set [1] came out at 0.166; in data set [2], 0.847; in data set [3] (C (μM): Taxol + Rg5 25 + 150, Taxol 25, Blank Rg5 150, Abraxane 25), 0.304; in data set [3] (C (μM): Taxol + Rg5 100 + 600, Taxol 100, Blank Rg5 600, Abraxane 100), 0.198; in data set [3] (C (μM): Taxol + Rg5 200 + 1200, Taxol 200, Blank Rg5 1200, Abraxane 200), 0.174.
